Read-outs that look alike come from different tables or passages of the source.
What was measured:
Format in all cases: cell-based
hGIPR = target: T1, hGIPR (Homo sapiens, UniProt P48546); assay: Functional cAMP formation (HTRF) in HEK-293 clonal cells expressing hGIPR, 0.1% bovine casein, without or with 1.0% human serum albumin; conditions: for EC50: geometric mean, read-out: hGIPR EC50, nM (SEM, n); for Emax: read-out: hGIPR Emax, % ± SEM
T1 construct: expressed in transfected cells
T1 sequence (P48546 22-466): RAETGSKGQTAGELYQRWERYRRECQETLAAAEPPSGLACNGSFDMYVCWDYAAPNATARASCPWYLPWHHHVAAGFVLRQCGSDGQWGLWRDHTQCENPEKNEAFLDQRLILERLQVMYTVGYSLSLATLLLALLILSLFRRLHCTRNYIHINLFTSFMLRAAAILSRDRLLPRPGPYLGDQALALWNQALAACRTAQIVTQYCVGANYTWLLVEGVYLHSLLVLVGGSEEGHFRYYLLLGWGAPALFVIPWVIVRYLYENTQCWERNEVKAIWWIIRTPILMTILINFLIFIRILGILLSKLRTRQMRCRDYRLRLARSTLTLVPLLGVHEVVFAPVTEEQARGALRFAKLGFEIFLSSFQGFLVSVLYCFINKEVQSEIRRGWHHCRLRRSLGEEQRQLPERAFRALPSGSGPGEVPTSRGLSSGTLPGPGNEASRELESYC
Protocol: (§1) After a 30-min incubation at 37° C., the resulting increase in intracellular cAMP is quantitatively determined using a CisBio cAMP Dynamic 2 HTRF Assay Kit (62AM4PEJ). Briefly, cAMP levels within the cell are detected by adding the cAMP-d2 conjugate in cell lysis buffer (10 µL) followed by the antibody anti-cAMP-Eu^3+-Cryptate, also in cell lysis buffer (10 µL). The resulting competitive assay is incubated for at least 60 min at room temperature, and then is detected using a PerkinElmer Envision® instrument with excitation at 320 nm and emission at 665 nm and 620 nm. Envision units (emission at 665 nm/620 nm* 10,000) are inversely proportional to the amount of cAMP present and are converted to nM cAMP per well us-ing a cAMP standard curve. […] A relative EC50 value and percent top (Emax) are derived by non-linear regression analysis using the percent maximal response vs. the concentration of peptide added, fitted to a four-parameter logistic equation.

By UniProt entry, the sequences of proteins in these tests, tags left out. Residues count along the entry.
UniProt P43220, 24-463: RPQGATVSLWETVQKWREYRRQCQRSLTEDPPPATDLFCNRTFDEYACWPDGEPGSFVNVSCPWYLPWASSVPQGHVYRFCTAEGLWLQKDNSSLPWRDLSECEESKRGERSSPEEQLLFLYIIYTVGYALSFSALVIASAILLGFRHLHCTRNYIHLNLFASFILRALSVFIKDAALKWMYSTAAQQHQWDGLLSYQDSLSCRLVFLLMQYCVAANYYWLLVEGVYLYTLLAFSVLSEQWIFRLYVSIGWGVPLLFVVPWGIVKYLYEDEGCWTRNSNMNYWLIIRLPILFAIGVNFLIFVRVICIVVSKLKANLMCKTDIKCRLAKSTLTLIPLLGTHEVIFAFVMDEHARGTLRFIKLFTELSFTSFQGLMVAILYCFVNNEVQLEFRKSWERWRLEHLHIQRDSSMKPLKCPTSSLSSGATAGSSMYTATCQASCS
UniProt P47871, 26-477: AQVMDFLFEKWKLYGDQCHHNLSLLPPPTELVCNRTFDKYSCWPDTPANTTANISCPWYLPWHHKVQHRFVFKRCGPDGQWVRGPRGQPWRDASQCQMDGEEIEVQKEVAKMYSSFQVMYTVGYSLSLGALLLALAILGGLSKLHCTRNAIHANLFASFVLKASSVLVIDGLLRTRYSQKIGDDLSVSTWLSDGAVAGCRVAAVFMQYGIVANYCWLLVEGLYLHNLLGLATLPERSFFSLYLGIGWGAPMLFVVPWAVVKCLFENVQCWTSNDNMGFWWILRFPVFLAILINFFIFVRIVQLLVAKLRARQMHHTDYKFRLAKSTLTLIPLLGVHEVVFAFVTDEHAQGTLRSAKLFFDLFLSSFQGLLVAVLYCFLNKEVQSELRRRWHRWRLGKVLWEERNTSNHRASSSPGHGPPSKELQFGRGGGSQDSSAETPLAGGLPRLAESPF

hGLP-1R = hGLP-1R (Homo sapiens, UniProt P43220); assay: Functional cAMP formation (HTRF) in HEK-293 clonal cells expressing hGLP-1R, 0.1% bovine casein, without or with 1.0% human serum albumin; set-up: expressed in transfected cells; conditions: for EC50: geometric mean, read-out: hGLP-1R EC50, nM (SEM, n)
Protocol: as §1

hGCGR = target: T2, hGCGR (Homo sapiens, UniProt P47871); assay: Functional cAMP formation (HTRF) in HEK-293 clonal cells expressing hGCGR, 0.1% bovine casein, without or with 1.0% human serum albumin; conditions: incubated at 37° C., 0.1% bovine casein (no human serum albumin), geometric mean, read-out: hGCGR EC50, nM (SEM, n)
T2 construct: expressed in transfected cells
Protocol: as §1

[1] = 0.1% bovine casein and 1.0% human serum albumin, 37° C.
[2] = cAMP, incubated at 37° C., 0.1% bovine casein (no human serum albumin)

CC[C@H](C)[C@H](NC(=O)[C@H](CC(C)C)NC(=O)[C@](C)(Cc1ccc(O)cc1)NC(=O)[C@H](CCCCNC(=O)COCCOCCNC(=O)COCCOCCNC(=O)CC[C@H](NC(=O)CCCCCCCCCCCCC(=O)O)C(=O)O)NC(=O)[C@@H](NC(=O)[C@H](Cc1ccccc1)NC(=O)[C@H](CCC(=O)O)NC(=O)C(C)(C)NC(=O)[C@H](CCC(N)=O)NC(=O)[C@H](C)NC(=O)[C@H](CCCCNC(=O)COCCOCCNC(=O)COCCOCCNC(=O)CC[C@H](NC(=O)CCCCCCCCCCCCC(=O)O)C(=O)O)NC(=O)[C@H](CCCN)NC(=O)[C@H](CC(=O)O)NC(=O)[C@H](CC(C)C)NC(=O)[C@](C)(CC(C)C)NC(=O)[C@@H](NC(=O)[C@H](CO)NC(=O)[C@H](Cc1ccncc1)NC(=O)[C@H](CC(=O)O)NC(=O)[C@H](CO)NC(=O)[C@@H](NC(=O)[C@](C)(Cc1ccccc1F)NC(=O)[C@@H](NC(=O)CNC(=O)[C@H](CCC(=O)O)NC(=O)C(C)(C)NC(=O)[C@@H](N)Cc1ccc(O)cc1)[C@@H](C)O)[C@@H](C)O)[C@@H](C)CC)[C@@H](C)CC)C(=O)N[C@@H](CCC(=O)O)C(=O)NCC(=O)NCC(=O)N1CCC[C@H]1C(=O)N[C@@H](CO)C(=O)N[C@@H](CO)C(=O)NCC(N)=O [Example 188]
EC50 (hGIPR; [1]): 1.37 nM | Emax (hGIPR; HEK293, 0.1% bovine casein and 1.0% human serum albumin, 37° C., percent of maximal response to GIP(1-42)NH2): 89% | Emax (hGIPR; HEK293, percent of maximal response to GIP(1-42)NH2, 37° C., 0.1% bovine casein, arithmetic mean): 94.9 ± 1.49% | EC50 (hGIPR; [2]): 0.0228 nM | EC50 (hGLP-1R; [1]): 19.1 nM | Emax (hGLP-1R; HEK293, percent of maximal response to GLP-1(7-36)NH2, 37° C., 0.1% bovine casein, arithmetic mean, read-out: hGLP-1R Emax, % ± SEM): 96.6 ± 4.28% | EC50 (hGLP-1R; [2]): 0.332 nM | EC50 (hGCGR): > 9950 nM

Reference: patent US20230265151A1, “GIP/GLP1 CO-AGONIST COMPOUNDS” (priority 2020, published 2023)
